What was measured:
Assay in all cases: apparent dissociation constant pKd app (kinobead competition) (-log10(M)); higher = stronger binding
[1] = target: CAMKK2 (UniProt Q96RR4)
[2] = target: T1, EPHB1 (UniProt P54762)
T1 sequence (whole entry): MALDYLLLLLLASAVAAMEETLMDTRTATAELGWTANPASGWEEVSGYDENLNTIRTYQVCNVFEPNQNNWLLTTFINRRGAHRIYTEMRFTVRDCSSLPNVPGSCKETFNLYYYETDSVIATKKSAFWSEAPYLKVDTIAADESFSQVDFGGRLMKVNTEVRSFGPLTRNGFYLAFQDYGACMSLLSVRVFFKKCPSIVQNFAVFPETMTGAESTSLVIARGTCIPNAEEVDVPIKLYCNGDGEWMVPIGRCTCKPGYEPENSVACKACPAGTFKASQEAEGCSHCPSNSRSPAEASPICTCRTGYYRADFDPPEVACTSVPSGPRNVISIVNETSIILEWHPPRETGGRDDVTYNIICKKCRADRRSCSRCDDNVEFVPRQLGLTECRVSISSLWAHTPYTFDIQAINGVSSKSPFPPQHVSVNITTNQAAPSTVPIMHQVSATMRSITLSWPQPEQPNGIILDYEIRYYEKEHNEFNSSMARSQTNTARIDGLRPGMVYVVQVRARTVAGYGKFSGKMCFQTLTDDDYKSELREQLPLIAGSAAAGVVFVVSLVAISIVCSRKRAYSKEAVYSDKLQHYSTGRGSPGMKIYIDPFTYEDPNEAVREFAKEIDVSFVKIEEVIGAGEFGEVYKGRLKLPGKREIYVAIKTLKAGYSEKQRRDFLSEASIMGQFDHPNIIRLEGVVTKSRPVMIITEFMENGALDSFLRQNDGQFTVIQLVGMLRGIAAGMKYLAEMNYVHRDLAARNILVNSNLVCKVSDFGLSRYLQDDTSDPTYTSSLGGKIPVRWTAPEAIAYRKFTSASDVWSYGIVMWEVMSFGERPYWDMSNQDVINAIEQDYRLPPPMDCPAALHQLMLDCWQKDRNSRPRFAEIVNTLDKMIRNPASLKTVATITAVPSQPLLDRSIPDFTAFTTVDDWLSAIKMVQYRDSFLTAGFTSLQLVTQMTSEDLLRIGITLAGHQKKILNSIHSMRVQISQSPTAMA

Protein sequences, listed by entry. Tags and fused reporters are not part of them.
UniProt Q96RR4, whole entry, looked up: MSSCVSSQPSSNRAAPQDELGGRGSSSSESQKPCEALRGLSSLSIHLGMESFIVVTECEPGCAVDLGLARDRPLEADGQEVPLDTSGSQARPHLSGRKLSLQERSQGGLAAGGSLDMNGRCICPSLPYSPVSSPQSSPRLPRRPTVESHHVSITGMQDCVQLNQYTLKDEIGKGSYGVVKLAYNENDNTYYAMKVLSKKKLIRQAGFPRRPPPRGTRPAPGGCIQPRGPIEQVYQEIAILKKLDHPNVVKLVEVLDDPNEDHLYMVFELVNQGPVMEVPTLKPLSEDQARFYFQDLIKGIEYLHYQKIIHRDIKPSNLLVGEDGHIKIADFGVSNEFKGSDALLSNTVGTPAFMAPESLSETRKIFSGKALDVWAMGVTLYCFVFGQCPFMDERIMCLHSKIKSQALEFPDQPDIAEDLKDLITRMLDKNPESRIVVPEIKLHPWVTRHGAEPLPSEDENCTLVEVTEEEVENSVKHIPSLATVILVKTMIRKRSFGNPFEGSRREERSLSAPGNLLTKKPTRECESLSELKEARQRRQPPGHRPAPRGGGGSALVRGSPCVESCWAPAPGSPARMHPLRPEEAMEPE
UniProt P11362, whole entry, looked up: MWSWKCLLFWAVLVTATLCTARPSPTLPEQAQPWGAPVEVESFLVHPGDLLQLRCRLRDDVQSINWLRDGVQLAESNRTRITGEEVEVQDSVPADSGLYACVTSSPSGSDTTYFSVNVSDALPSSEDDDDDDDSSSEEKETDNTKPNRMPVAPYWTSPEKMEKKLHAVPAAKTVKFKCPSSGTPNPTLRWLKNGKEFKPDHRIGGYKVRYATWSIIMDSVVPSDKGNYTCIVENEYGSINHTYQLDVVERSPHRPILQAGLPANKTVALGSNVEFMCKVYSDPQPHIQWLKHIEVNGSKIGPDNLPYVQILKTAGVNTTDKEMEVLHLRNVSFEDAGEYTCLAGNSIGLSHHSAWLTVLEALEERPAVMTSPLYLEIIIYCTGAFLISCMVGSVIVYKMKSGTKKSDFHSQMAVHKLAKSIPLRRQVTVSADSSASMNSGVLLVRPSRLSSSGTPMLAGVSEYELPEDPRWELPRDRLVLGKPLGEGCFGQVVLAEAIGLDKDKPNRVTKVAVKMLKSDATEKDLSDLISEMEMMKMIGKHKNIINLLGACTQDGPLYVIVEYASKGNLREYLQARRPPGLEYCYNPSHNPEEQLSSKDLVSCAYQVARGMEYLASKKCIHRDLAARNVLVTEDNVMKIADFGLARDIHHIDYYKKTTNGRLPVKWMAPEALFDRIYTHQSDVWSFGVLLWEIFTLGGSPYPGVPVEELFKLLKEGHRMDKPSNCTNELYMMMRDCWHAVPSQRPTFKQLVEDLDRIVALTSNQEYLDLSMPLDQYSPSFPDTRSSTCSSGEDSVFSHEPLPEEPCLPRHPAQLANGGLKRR

[3] = target: FGFR1 (UniProt P11362)
[4] = target: T2, ICK (UniProt Q9UPZ9)
T2 sequence (whole entry): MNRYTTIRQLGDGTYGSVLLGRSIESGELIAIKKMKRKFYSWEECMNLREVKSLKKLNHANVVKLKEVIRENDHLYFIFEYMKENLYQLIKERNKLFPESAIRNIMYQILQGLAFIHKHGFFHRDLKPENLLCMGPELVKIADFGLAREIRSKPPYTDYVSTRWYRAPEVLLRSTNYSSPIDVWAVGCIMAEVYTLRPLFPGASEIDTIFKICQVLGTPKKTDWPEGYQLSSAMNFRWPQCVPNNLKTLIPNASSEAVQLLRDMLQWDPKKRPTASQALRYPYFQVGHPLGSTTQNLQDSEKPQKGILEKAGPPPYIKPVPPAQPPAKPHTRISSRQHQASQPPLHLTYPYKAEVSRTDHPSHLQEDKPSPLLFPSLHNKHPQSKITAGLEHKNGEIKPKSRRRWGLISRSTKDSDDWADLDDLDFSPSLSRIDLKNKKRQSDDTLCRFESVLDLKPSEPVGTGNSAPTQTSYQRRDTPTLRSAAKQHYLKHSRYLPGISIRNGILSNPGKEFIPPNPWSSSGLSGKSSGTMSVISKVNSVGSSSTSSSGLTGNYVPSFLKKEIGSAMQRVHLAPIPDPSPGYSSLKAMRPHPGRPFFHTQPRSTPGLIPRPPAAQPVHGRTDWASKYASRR

[5] = target: T3, PIP4K2B (UniProt P78356)
T3 sequence (whole entry): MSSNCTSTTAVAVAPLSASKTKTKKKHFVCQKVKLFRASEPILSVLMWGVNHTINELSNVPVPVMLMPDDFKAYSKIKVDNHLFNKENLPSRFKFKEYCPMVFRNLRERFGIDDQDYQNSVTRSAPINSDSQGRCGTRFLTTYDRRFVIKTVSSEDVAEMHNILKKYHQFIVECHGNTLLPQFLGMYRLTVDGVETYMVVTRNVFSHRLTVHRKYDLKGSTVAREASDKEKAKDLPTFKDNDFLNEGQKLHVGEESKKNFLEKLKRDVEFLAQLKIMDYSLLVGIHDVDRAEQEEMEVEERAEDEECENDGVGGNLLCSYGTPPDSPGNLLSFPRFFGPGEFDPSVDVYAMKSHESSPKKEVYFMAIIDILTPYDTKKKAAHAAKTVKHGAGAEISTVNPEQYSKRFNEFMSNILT

[6] = target: T4, STK3 (UniProt Q13188)
T4 sequence (whole entry): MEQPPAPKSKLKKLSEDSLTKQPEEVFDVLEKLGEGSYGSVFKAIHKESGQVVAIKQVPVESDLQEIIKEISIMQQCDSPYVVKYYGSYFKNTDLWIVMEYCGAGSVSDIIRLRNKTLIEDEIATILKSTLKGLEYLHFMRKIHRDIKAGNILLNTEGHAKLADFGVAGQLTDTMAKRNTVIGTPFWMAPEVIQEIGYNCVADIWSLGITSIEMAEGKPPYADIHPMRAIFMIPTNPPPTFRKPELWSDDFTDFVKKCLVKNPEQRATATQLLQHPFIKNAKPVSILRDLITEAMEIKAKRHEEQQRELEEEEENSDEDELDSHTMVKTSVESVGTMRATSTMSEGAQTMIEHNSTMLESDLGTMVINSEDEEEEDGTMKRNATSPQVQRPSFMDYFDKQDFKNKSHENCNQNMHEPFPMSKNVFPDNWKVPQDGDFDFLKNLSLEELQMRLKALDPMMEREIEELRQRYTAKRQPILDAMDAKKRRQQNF

Compound: NC(=O)c1cccc2cn(-c3ccc([C@@H]4CCCNC4)cc3)nc12 [Niraparib]
- apparent dissociation constant pKd app (-log10) [1]: < 4.8
- apparent dissociation constant pKd app (-log10) [2]: < 4.7
- apparent dissociation constant pKd app (-log10) [3]: < 4.6
- apparent dissociation constant pKd app (-log10) [4]: < 4.7
- apparent dissociation constant pKd app (-log10) [5]: < 4.5
- apparent dissociation constant pKd app (-log10) [6]: < 4.5

Compound: Cn1ncnc1[C@H]1c2n[nH]c(=O)c3cc(F)cc(c23)N[C@@H]1c1ccc(F)cc1 [Talazoparib]
- apparent dissociation constant pKd app (-log10) [1]: < 4.8
- apparent dissociation constant pKd app (-log10) [2]: < 4.7
- apparent dissociation constant pKd app (-log10) [3]: < 4.6
- apparent dissociation constant pKd app (-log10) [4]: < 4.7
- apparent dissociation constant pKd app (-log10) [5]: < 4.5
- apparent dissociation constant pKd app (-log10) [6]: < 4.5

Compound: O=C(c1cc(Cc2n[nH]c(=O)c3ccccc23)ccc1F)N1CCN(C(=O)C2CC2)CC1 [Olaparib]
- apparent dissociation constant pKd app (-log10) [1]: < 4.8
- apparent dissociation constant pKd app (-log10) [2]: < 4.7
- apparent dissociation constant pKd app (-log10) [3]: < 4.6
- apparent dissociation constant pKd app (-log10) [4]: < 4.7
- apparent dissociation constant pKd app (-log10) [5]: < 4.5
- apparent dissociation constant pKd app (-log10) [6]: < 4.5
